From patent US5466700A (priority 1993, dated 1995)

Legend:
[1] = tested on: seizure activity on the EEG; conditions: dogs, compared with fentanyl seizures (increase in EEG amplitude and frequency)
[2] = tested on: EEG amplitude in anesthetized dogs; assay: EEG amplitude in anesthetized dogs (Example 1, Table 1); conditions: 70 min; PT-Z given after fentanyl infusion; mean ± SEM; * differs from time 0

Structure (SMILES): C1CCc2nnnn2CC1 [pentylenetetrazole]
- EEG effect of positive control [1]: produced similar effects on the EEG
- EEG effect of positive control ([1]; listed as pentyienetetrazole): high voltage, high frequency EEG pattern
- EEG amplitude, left hemisphere (occipital frontal leads) [2]: 31.8 ± 4.6 μV
- EEG amplitude, right hemisphere (occipital frontal leads) [2]: 34.4 ± 5.7 μV

Like-named read-outs stand apart in the source and are kept apart here.
